The values that follow come from patent US10420803B2, “Differentiation of pluripotent stem cells to intestinal midgut endoderm cells” (Janssen Biotech, Inc., priority 2016, dated 2019).

The subject of experiment [1] is H1-hESC-derived S3D5 cells. The experiment can be described thus: Gene expression by qPCR (Taqman Arrays) in S3D5 cells. The class given is cell-based, human. The text has this:
(§1) Differentiation: The cultures were differentiated using the following protocol. During Stages 1 through 3 of the protocol, cultures were maintained on planar adherent cultures. Others, however, have described differentiation using suspension culture including US US2014/0242693, which is incorporated by reference in its entirety; the protocol described herein can be modified and performed in suspension, which provides for scalability of manufacturing. The following nomenclature, S#D#, specifies exact time during Stages 1 through 3. For example, S1D3 is stage 1 day 3. Briefly, each stage defines differentiation towards definitive endoderm (stage 1), primitive gut tube (stage 2), and intestinal midgut endoderm (stage 3). • a. Stage 1 (3 days): Cells were cultured for one day in the following Stage 1 media:
For quantification of gene expression at various stages, Caco-2, H1-hESC, S1D3, S2D2, S3D2 and S3D5 cells were harvested, as described in Nature Biotechnology, 2014 (32) 11, 1121-1133. Briefly, gene expression was assessed in cells using custom Taqman® Arrays (Applied Biosystems, Foster City, Calif.); Open Array® (OA) was used for CDX2, FOXA2, SOX2, SOX9, PDX1, ALB, PTF1A, and Taqman® Low Density Array (TLDA) was used for KLF5, HOXC5, and LGR5, with housekeeping gene GAPDH used for both tests. Data were analyzed using Sequence Detection Software (Applied Biosystems, Foster City, Calif.), and normalized using GAPDH as a housekeeping gene to undifferentiated H1-hESC using the ΔΔCt method. Primer details are outlined in Table IV.
For orientation: Quantitative PCR measures a nucleic acid by following its amplification.

For experiment [2], the system named is H1-hESC-derived S3D5 cells. As to the kind of experiment: FACS quantification of protein co-presence in S3D5 cells. Type of experiment: cell-based, human.
Excerpt: as §1
Quantification of differentiated cells: For quantification of protein presence co-localization, S3D5 cells were harvested and analyzed by FACS. FACS staining was conducted as described in Nature Biotechnology, 2014 (32) 11, 1121-1133, incorporated herein by reference in its entirety, and using the antibodies listed in Table II. In brief, differentiated cells were incubated in TrypLE™ Express (Life Technologies, Carlsbad, Calif., Catalog No. 12604) for 5-10 minutes at 37° C., released into a single-cell suspension, after which they were washed twice with a staining buffer of PBS containing 0.2% BSA (BD Biosciences, San Jose, Calif., Catalog No. 554657). Intracellular antibody staining was accomplished by utilizing the LIVE/DEAD Violet Fluorescent reactive dye (Life Technologies, Carlsbad, Calif., Catalog No. L34955) at 4° C. for 30 minutes followed by a single wash in cold PBS. Fixing of cells was in 300 μl of Cytofix/Cytoperm Buffer (BD Biosciences, San Jose, Calif., Catalog No. 554723) followed by two washes in Perm/Wash Buffer (BD Biosciences, San Jose, Calif., Catalog No. 554722). Cells were then incubated with the appropriate antibodies at 4° C. for 30 minutes (for unconjugated antibodies) or 1 hour (for conjugated antibodies), and then washed twice prior to analysis on the BD FACS Canto II using BD FACS Diva Software with at least 30,000 events being acquired. Non-viable cells were excluded during FACS analysis, and gating was determined by using isotype antibodies (“IgG”). IgG FACS data is shown as the top panel for each FACS experiment presented. Antibodies were tested for specificity using positive controls, such as Caco-2 cells, or negative controls, such as S1D3 definitive endoderm (“DE”) cells.

The mark [3] stands for this setting: S3D5, compared to pancreas-biased S4D3 cells.

On to “BMP2: Bone morphogenic protein-2, alternative to BMP4 during Stage 3, with retinoic acid in BLAR medium”, for which, in experiment [1] (S3D5), the ALB gene expression entry is recorded as “not observed”, the HOXA13 gene expression entry was “not induced”, the HOXC5 gene expression result is “strongly induced” and the KLF5 gene expression entry is “strongly upregulated”. In addition, in experiment [1] (S3D5), the LGR5 gene expression entry is “not induced”; the SOX2 gene expression entry was “below levels seen in hESC and Caco-2 cells”. The SOX9 gene expression entry in experiment [1] (S3D5, compared to Caco-2 cells) is “Strong induction”. For the same substance, in experiment [1] (setting [3]), the PDX1 gene expression result is reported as “induced at low levels” and the PTF1A gene expression entry is “not induced”. Further, in experiment [1] (during Stage 3), the CDX2 gene expression result is given as “induced” and the FOXA2 gene expression entry is on record as “maintained”. In experiment [2], the “S3D5 cells exhibiting SOX2 and CDX2 co-presence” value stood at 0.8%; the “percent of cells co-positive for both CDX2 and PDX1” value is reported as 45.5%; the “percent of cells co-present for both CDX2 and SOX9” value is listed as 99.8%. Besides, the “percent of S3D5 cells co-present for both CDX2 and FOXA2 protein” value in experiment [2] (Stage 3 in BLAR medium with 1 μM retinoic acid and 50 ng/ml BMP) is on record as 94%. In addition, the “percentage KI67-protein positive cells of total S3D5 cells” value in experiment [2] (total cells >90% CDX2-positive) worked out at 14.1%.
